# Literature values as cited in US7534424B2, “Method of enhancing delivery of a therapeutic nucleic acid” (Biogen Idec MA Inc., priority 2001, dated 2009).
# Conditions: literature (Joklik 1991)
substance,measurement,value
"human IFN-β: human interferon-beta, the transgene product",cross-species activity in mice,does not have detectable cross-species activity
